Experimental findings from PubChem BioAssay AID504357 (The Scripps Research Institute Molecular Screening Center, 2011) are described below.

Amino acid sequences for entries named in this document (tags omitted).
UniProt P35372, whole entry, looked up: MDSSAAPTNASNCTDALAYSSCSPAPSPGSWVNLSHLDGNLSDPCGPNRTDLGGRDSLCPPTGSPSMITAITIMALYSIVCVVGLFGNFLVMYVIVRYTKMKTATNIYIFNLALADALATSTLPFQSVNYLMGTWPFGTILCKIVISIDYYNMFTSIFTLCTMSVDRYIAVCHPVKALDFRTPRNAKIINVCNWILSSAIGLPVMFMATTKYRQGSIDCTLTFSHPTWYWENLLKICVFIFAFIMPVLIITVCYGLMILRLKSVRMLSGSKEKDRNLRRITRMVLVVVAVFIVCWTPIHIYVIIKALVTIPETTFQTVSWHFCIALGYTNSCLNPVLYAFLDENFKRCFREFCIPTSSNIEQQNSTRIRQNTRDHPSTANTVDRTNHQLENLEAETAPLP
UniProt P41143, whole entry, looked up: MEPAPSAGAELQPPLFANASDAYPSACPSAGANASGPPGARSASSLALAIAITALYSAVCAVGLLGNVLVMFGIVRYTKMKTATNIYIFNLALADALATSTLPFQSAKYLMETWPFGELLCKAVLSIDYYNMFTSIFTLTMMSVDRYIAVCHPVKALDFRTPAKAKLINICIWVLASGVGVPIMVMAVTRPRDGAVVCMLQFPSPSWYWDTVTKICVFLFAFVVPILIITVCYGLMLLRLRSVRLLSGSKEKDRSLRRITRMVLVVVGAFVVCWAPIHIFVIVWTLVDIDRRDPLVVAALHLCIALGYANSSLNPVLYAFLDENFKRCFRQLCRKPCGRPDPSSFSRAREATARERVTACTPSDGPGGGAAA

Structures are written as SMILES. The list shows a part of the results, in another mix than the full data. Active and inactive are the calls of the source. Rule as the data show it: active = inhibition above about 22% (passing the limit was not always enough); inactive = the rest.

In the assay the target is Mu-type opioid receptor (Homo sapiens) + Delta-type opioid receptor (Homo sapiens) (UniProt P35372+P41143). Kind of assay: OPRM1-OPRD1 heterodimer inverse agonism – cell-based, luminescence, primary screen (AID 504357).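 Also: 0% = cells with DMSO and 100% = wells without cells with DMSO.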 The settings on record: cell-based MOR-DOR heterodimer luminescence, at 9.3 µM, active compounds read high.
For `CCS(=O)(=O)c1nc2ccccc2n1CC(=O)N1CCCCC1`, the inhibition (in general, the change of the read-out against control, counted positive when it falls) was inactive: 17.4%.
`CCc1ccc(NC(=O)Cn2cnc3c(=O)n(C)c(=O)n(C)c32)cc1`: the inhibition was inactive: -3.33%.
Regarding `CC(C)C(=O)NC(Sc1ccccc1)C(Cl)(Cl)Cl` (configuration not stated), the inhibition is inactive: -18.5%.
Regarding `c1ccc(CNc2nc3ccccc3n2CCN2CCOCC2)nc1`, the inhibition is inactive: 6.93%.
On to `O=P(Nc1nccs1)(c1ccccc1)c1ccccc1`, for which the inhibition is inactive: 13.6%.
Take `Cn1c(=O)n(CC(=O)N2CCOCC2)c2ccccc21`: the inhibition was inactive: 7.75%.
As for `CC(C)c1ccccc1NC(=O)Cn1c(-c2ccccc2Cl)nc2ccccc21`, the inhibition is inactive: 11.7%.
As to `CC(C)C[C@H](NC(=O)N1CCn2c1nc1ccccc12)C(=O)N[C@H](Cc1ccccc1)C(=O)O`, the inhibition was inactive: 11.8%.
In the case of `CCC(C(=O)NC1CCCCC1)n1c(SCc2cccc(F)c2)nc2ccncc21` (configuration not stated), the inhibition is inactive: -4.05%.
Next, `CC(/C=N/NC(=O)Cn1cnc2c1c(=O)n(C)c(=O)n2C)=C\c1ccccc1`: inactive: 8.43%.
As for `O=C(Cn1cnc2c(OCc3ccccc3)ncnc21)NCC1CCCO1` (configuration not stated), the inhibition is inactive: 15.5%.
As for `Cn1c(=O)c2ncn(CC(=O)N/N=C/c3ccco3)c2n(C)c1=O`, the inhibition is inactive: 4.96%.
In the case of `COc1ccc(OCC(O)Cn2c(=N)n(CCN3CCCCC3)c3ccccc32)cc1` (configuration not stated), the inhibition was inactive: 11.4%.
Regarding `C[C@@H](NC(=O)Cn1cnc2c(OCc3ccccc3)ncnc21)c1cccc2ccccc12`, the inhibition is inactive: -13.1%.
The value for `N#CCCN1CCn2c1nc1ccccc12` was inactive: 7%; that for `O=C(c1cccs1)N1CCn2c1nc1ccccc12` was inactive: 8.41%.
Consider `COc1ccc(NC(=O)CN(C)C(=O)Cn2cnc3c2c(=O)n(C)c(=O)n3C)cc1`, for which the inhibition was inactive: 6.52%.
Turning to `CC(C)C[C@H](NC(=O)N1CCn2c1nc1ccccc12)C(=O)NC1CC1`, the inhibition was inactive: 9.74%.
The value for `CCN(CC)CCn1c(=N)n(CC(O)c2ccc(OC)c(OC)c2)c2ccccc21` (configuration not stated) was inactive: -28.8%.
Take `CCOCCn1c(=O)c2c(nc3n2CCN3c2ccc(C)cc2)n(C)c1=O`: the inhibition was inactive: 13.5%.
`Cc1ccccc1Oc1ccc2c(c1)[C@@H]1C[C@H](N(C)C(=O)NC3CCCCC3)[C@H]([C@H](C)O)C(=O)N1CC2`: the inhibition is inactive: 2.93%.
Next, `CC1CCCC(C)N1C(=O)Cn1c(SCC(=O)Nc2ccc3c(c2)OCO3)nc2ccccc21` (configuration not stated): inactive: 5.66%.
Consider `Cn1c(=O)c2c(ncn2CC(=O)N2CCN(S(=O)(=O)c3ccccc3)CC2)n(C)c1=O`, for which the inhibition was inactive: 7.95%.
The value for `c1ccc2c(c1)nc1n2CCN1CCN1CCCC1` was inactive: 13.5%.
The value for `COC(=O)[C@H](Cc1ccccc1)NC(=O)Cn1cnc2c(NCc3ccccc3)ncnc21` was inactive: 17.6%; that for `CC(NC(=O)Cn1c(NCCO)nc2ccccc21)c1ccccc1` (configuration not stated) was inactive: 10.2%.
In the case of `Cn1c(=O)c2c(nc(CN3CCN(Cc4ccccc4)CC3)n2CCN2CCOCC2)n(C)c1=O`, the inhibition is inactive: 9.49%.
As to `COc1ccc(OC)c(CNc2nc3ccccc3n2CCN2CCCCC2)c1`, the inhibition was inactive: 3.13%.
As for `O=C(Cn1cnc2ccccc21)Nc1ccccc1-c1ccccc1`, the inhibition was inactive: 2.25%.
Next, `CCSc1nc2ccccc2n1CC(N)=O`: inactive: 10.2%.
Next, `Cc1ccc2c(c1)C1CN(C)CCC1N2S(=O)(=O)c1ccc(C(C)C)cc1` (configuration not stated): inactive: -7.36%; `Brc1cccc(CNc2nc3ccccc3n2CCN2CCCCC2)c1`: inactive: 7.41%.
As to `CCC(C)N(C(=O)Cn1c(Cl)nc2c1c(=O)n(C)c(=O)n2C)C1CCS(=O)(=O)C1` (configuration not stated), the inhibition is inactive: 5.48%.
For the compound `COc1ccc(CNc2nc3ccccc3n2CCN2CCCCC2)cc1`, the inhibition was inactive: 7.16%.
Consider `COCCN1CCn2c(nc3cc(NS(C)(=O)=O)ccc32)C1`, for which the inhibition was inactive: 6.55%.
For the compound `Cc1cccc(OCC(O)Cn2c(=N)n(CCN3CCCCC3)c3ccccc32)c1` (configuration not stated), the inhibition was inactive: -5.04%.
The value for `O=C(Cn1cnc2ccccc21)N/N=C/c1ccco1` was inactive: 13.8%; that for `CCc1cccc(C)c1NC(=O)CSc1nc2ccccc2n1CC(=O)N(C)C` was inactive: 10.8%.
As for `CCN1C(=O)CC(n2c(C)nc3ccccc32)C1=O` (configuration not stated), the inhibition was inactive: 11.9%.
For `Cn1c(=O)c2c(nc(CN3CCN(C(c4ccccc4)c4ccccc4)CC3)n2CC(N)=O)n(C)c1=O`, the inhibition is inactive: -1.97%.
Take `CCOC(=O)c1cccc(NC(=O)Cn2cnc3c2c(=O)n(C)c(=O)n3C)c1`: the inhibition is inactive: 6.26%.
Next, `CC(=O)NC(C)c1nc2ccccc2n1CC(=O)NC(C)CCc1ccccc1` (configuration not stated): inactive: 4.45%; `Nc1nonc1-c1nc2ccccc2n1CC(=O)N/N=C/c1ccc(-c2ccccc2C(=O)O)o1`: inactive: 14.9%; `COc1ccc(-c2nn(-c3ccccc3)cc2C(=O)N2c3ccc(C)cc3C3CN(C)CCC32)cc1` (configuration not stated): inactive: 0.01%.
Turning to `Cn1c(=O)[nH]c(=O)c2c1nc(N1CCCCCC1)n2CC(N)=O`, the inhibition is inactive: 14.5%.
On to `CCCn1c(=O)c2c(nc3n2CCN3Cc2ccco2)n(C)c1=O`, for which the inhibition is inactive: -1.72%.
Regarding `COc1ccc(C[C@H](C)NC[C@@H](O)c2ccc(O)c(NC=O)c2)cc1`, the inhibition was inactive: 3.63%.
With `COc1ccc(Cc2nnc(NC(=O)Cn3cnc4c3c(=O)n(C)c(=O)n4C)s2)cc1OC`, the inhibition was inactive: 1.81%.
Consider `CC(/C=N/NC(=O)Cn1cnc2ccccc21)=C\c1ccccc1`, for which the inhibition is inactive: 3.21%.
On to `O=S(=O)(c1ccc(Cl)cc1)N1CCn2c1nc1ccccc12`, for which the inhibition was inactive: 1.69%.
For `CSCC[C@H](NC(=O)N1CCn2c1nc1ccccc12)C(=O)NCc1ccc2c(c1)OCO2`, the inhibition was inactive: 6.09%.
Consider `O=S(=O)(c1ccccc1)c1nnn2c1nc(NC1CCN(Cc3ccccc3)CC1)c1cc(Cl)ccc12`, for which the inhibition is inactive: -102%.
On to `CCOc1ccc(CNc2nc3ccccc3n2CCN2CCOCC2)cc1`, for which the inhibition was inactive: -2.43%.
In the case of `O=C(NC1CCCCC1)C(c1ccccc1)N(Cc1ccco1)C(=O)Cn1cnc2ccccc21` (configuration not stated), the inhibition is inactive: 1.51%.
Consider `CSCC[C@H](NC(=O)N1CCn2c1nc1ccccc12)C(=O)NC1CC1`, for which the inhibition is inactive: 12.9%.
`Cc1ccc(C(=O)Cn2c(=N)n(CCN3CCOCC3)c3ccccc32)cc1`: the inhibition was inactive: -31.5%.
Take `CCN(CC)c1ccc(NC(=O)Cn2c(C(C)NC(=O)c3ccc(C)cc3)nc3ccccc32)cc1` (configuration not stated): the inhibition is inactive: -8.31%.
